The source of these data is US7652028B2, “Indenoisoquinolinone analogs and methods of use thereof” (Inotek Pharmaceuticals Corporation, priority 2005, dated 2010).

Protein sequences, listed by entry. Tags and fused reporters are not part of them.
UniProt P09874, whole entry: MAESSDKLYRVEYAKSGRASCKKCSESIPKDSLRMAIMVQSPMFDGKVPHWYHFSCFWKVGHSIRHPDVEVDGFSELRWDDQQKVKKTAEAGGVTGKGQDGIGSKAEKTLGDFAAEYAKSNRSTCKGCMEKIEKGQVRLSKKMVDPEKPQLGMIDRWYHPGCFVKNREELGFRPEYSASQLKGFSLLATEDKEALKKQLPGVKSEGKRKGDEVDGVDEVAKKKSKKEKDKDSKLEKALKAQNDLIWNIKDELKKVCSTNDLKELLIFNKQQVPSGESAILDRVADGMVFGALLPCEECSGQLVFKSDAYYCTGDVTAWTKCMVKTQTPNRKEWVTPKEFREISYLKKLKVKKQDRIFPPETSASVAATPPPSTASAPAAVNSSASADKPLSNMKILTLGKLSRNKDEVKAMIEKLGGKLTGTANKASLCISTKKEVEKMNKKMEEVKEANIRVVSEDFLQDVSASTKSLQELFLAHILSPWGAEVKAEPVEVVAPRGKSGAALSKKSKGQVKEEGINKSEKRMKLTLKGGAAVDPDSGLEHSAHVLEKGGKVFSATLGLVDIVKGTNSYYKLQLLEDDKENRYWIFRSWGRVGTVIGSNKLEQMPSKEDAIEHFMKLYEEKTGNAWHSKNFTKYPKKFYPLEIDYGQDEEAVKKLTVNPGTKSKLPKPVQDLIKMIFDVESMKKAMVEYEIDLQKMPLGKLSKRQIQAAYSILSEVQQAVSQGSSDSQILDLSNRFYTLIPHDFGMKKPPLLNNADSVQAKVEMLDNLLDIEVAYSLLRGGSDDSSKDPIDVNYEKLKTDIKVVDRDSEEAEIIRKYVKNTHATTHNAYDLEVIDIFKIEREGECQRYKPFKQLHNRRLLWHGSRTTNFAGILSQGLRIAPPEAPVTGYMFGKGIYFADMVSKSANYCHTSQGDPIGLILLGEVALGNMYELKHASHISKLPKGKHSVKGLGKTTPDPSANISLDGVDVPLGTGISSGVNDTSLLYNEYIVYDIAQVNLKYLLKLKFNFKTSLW
UniProt P11103, whole entry: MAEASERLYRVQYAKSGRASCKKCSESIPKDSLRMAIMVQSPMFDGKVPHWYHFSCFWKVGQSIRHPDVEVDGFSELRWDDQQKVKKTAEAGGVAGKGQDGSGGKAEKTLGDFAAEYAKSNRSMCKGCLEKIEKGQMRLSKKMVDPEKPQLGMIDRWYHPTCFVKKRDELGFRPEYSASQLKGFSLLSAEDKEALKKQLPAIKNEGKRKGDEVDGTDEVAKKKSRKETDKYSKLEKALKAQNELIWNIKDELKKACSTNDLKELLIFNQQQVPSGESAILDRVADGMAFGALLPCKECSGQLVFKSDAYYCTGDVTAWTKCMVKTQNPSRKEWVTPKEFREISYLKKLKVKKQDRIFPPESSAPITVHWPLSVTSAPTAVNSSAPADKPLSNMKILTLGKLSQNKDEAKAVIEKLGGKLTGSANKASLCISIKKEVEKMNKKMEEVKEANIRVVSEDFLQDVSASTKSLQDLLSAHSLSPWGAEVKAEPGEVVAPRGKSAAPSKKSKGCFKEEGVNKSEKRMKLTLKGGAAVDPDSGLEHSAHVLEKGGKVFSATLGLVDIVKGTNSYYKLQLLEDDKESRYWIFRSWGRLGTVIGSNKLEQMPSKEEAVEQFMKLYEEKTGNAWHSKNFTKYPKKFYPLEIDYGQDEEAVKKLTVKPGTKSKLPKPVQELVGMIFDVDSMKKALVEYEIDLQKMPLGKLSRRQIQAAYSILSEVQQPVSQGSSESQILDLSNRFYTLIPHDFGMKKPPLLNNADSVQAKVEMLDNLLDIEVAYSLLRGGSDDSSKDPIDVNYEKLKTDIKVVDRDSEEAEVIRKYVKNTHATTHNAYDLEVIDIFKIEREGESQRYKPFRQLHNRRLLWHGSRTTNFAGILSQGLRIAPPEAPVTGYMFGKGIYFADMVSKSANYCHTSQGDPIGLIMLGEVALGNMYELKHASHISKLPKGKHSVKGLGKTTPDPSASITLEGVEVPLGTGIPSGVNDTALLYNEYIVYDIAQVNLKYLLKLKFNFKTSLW

One assay has as its target PARP-1 (Homo sapiens, UniProt P09874). Kind of assay: in vitro PARP-1 inhibition assay kit (Trevigen). The note with it: read-out: IC50 value; commercially available in vitro PARP-1 inhibition assay kit (Trevigen). It counts as biochemical. The protocol: The potency of inhibition of purified PARP enzyme can be subsequently determined for selected Indenoisoquinolinone Analogs, and the potency is compared with that of 3-aminobenzamide, a prototypical benchmark PARP inhibitor. The assay is performed in 96 well ELISA plates according to instructions provided with a commercially available PARP inhibition assay kit (for example, from Trevigen, Gaithersburg, Md.).
(§1) Human alveolar epithelial cells (A549), an adenocarcinoma cell line with the alveolar type 2 phenotype were cultured in […] medium supplemented with 10% fetal bovine serum. Cells were grown to 80% confluence in 12-well plates and pretreated with various concentrations (10 nM-300 nM) of an Indenoisoquinolinone Analog for 15 minutes. Hydrogen peroxide, a prototypical oxidant that induces DNA single strand breakage, was used to induce PARP activation. Hydrogen peroxide was diluted in culture media and added to the cells in a bolus of 20 μl. After 20 minutes of incubation, the medium was aspirated and 0.5 mL of assay buffer (56 mM HEPES pH 7.5, 28 mM KCl, 28 mM NaCl, 2 mM MgCl2, 0.01% w/v digitonin and 0.5 μCi/ml 3H-NAD^+) was added to cells. Following incubation in the assay buffer (15 minutes at 37° C.), PARP activity was measured. Cells were scraped from the plate, transferred to a 1.5 mL eppendorf tube and then added 200 μl of ice cold 50% w/v TCA. After 4 hours incubation at 4° C., samples were then spun (10 minutes at 10,000 g) and pellets washed twice with ice cold 5% w/v TCA and solubilized overnight in 250 μl 2% w/v SDS/0.1 N NaOH at 37° C. The contents of the tubes were added to 6.5 mL ScintiSafe Plus scintillation liquid (Fisher Scientific) and radioactivity was determined using a liquid scintillation counter (Wallac, Gaithersburg, Md.). […] EC50 values were determined from a dose-response curve. IC50 values were determined using a commercially available in vitro PARP-1 inhibition assay kit (Trevigen, Gaithersburg, Md., USA).

For assay [1], the target named is PARP (Homo sapiens, UniProt P09874). The assay can be described thus: PARP activity in hydrogen peroxide-stimulated A549 cells, whole-cell based assay (3H-NAD+ incorporation). The note with it: read-out: EC50 value, 15 min pretreatment (10 nM-300 nM), hydrogen peroxide-induced PARP activation, from dose-response curve. As to the method: as §1
For assay [2], the target named is PARP (Mus musculus, UniProt P11103). The assay can be described thus: PARP activity in hydrogen peroxide-stimulated murine RAW macrophages, whole-cell based assay (3H-NAD+ incorporation). The note with it: read-out: EC50 value, hydrogen peroxide (0.5 mM) for 25 minutes after 1 hour pretreatment. The protocol:
The murine RAW macrophages (ATCC, American Type Culture Collection, Manassas, Va.) were grown in RPMI 1650 (Invitrogen Life Technologies; Carlsbad, Calif.) medium supplemented with 10% heat-inactivated FBS, 2 mM L-glutamine, and 100 U/ml of penicillin and streptomycin. Cells, between passages 5 and 15, were seeded at a density of 250,000 cells/well in 12 well plates and allowed to grow 48 hours before use. Growth medium was changed on the day of use. Cells were treated with an Indenoisoquinolinone Analog diluted in a growth medium supplemented with 10% fetal bovine serum (FBS) for 1 hour prior to the addition of hydrogen peroxide (0.5 mM) for a further 25 minutes. For the measurement of PARP activity, media was removed and replaced with 0.5 ml of the assay buffer (56 mM HEPES-pH 7.5, 28 mM KCl, 28 mM NaCl, 2 mM MgCl2, 0.01% digitonin, and 0.5 μCi/ml of 3H-NAD^+) for 20 minutes. After aspirating the assay buffer, cells were lysed and transferred to eppendorf tubes containing 250 μl of 50% ice-cold trichloroacetic acid (TCA), which were then placed at 4° C. for 4 hours. Samples were centrifuged at 10,000 g for 10 minutes and supernatant removed. The pellets were washed twice with 500 μl of ice-cold 5% w/v TCA. The pellets were then solubilized in 250 μl of NaOH (0.1 M) containing 2% SDS overnight at 37° C. and the PARP activity was then determined by measuring the radioactivity incorporated using a Wallac scintillation counter. The solubilized protein (250 μl) was mixed with 5 ml of scintillation fluid (ScintiSafe Plus, Fisher Scientific) before being counted for 3 minutes. EC50 values were determined from a dose-response curve.

For the compound `O=c1[nH]c2c(c3ccccc13)Cc1c(CN3CC=C(c4ccc(F)cc4)CC3)cccc1-2`, at PARP-1, the IC50 was 300 nM.
For `O=c1[nH]c2c(c3ccccc13)Cc1cc(CO)ccc1-2`, on PARP [1], the EC50 came to 100 nM.
`CN(C)Cc1ccc2c(c1)Cc1c-2[nH]c(=O)c2ccccc12`: on PARP [1], the EC50 came out at 75 nM.
Turning to `CN(C)Cc1cccc2c1Cc1c-2[nH]c(=O)c2ccccc12`, the EC50 at PARP [1] and on PARP [2] was 10 nM in each case.
As for `CCCN(CCC)Cc1ccc2c(c1)Cc1c-2[nH]c(=O)c2ccccc12`, at PARP [1], the EC50 worked out at 300 nM.
Turning to `CCCN(CCC)Cc1cccc2c1Cc1c-2[nH]c(=O)c2ccccc12`, the EC50 on PARP [1] and on PARP [2] was 15 nM each time. Also, the half-inhibitory concentration (IC50) at PARP-1 worked out at 300 nM.
Consider `CCN(CC)Cc1cccc2c1Cc1c-2[nH]c(=O)c2ccccc12`, for which the IC50 at PARP-1 is 10 nM. Moreover, the EC50 on PARP [2] is below 10 nM.
Turning to `O=c1[nH]c2c(c3ccccc13)Cc1c(CN3CCC(O)C3)cccc1-2` (stereo not drawn), the IC50 at PARP-1 was 20 nM.
As for `O=c1[nH]c2c(c3ccccc13)Cc1cc(CN(CCO)CCO)ccc1-2`, the EC50 at PARP [1] stood at 285 nM.
In the case of `O=c1[nH]c2c(c3ccccc13)Cc1cc(CNCCN3CCOCC3)ccc1-2`, the EC50 on PARP [1] and on PARP [2] was 12 nM throughout.
For the compound `O=c1[nH]c2c(c3ccccc13)Cc1c(CN(CCO)CCO)cccc1-2`, at PARP [1], the EC50 worked out at 275 nM.
On to `O=c1[nH]c2c(c3ccccc13)Cc1c(CNCCN3CCOCC3)cccc1-2`, for which, on PARP [1], the EC50 worked out at 90 nM.
`O=c1[nH]c2c(c3ccccc13)Cc1c(CN3CCOCC3)cccc1-2`: the EC50 at PARP [1] worked out at 85 nM.

The term IC50 denotes the midpoint of a concentration-inhibition curve. By EC50 is commonly meant the concentration giving half of the maximal effect.
